The values that follow come from patent publication US11890335B2, “ErbB peptide pharmaceutical and vaccine compositions and therapeutic uses thereof for cancer” (L2 Diagnostics, LLC, priority 2017, dated 2024).

Test [1] has as its system MDA-MB-453 cells. The note with it: control antibodies, 10-40 mg/ml concentrations tested.
For a further test, the system named is human EGFR on A431 cells. The test is described as follows: Flow cytometry, binding to A431 cells. The note with it: serum 1:100 or cetuximab 5 μg/ml. The protocol: (§1) A431 and MDA-MB-453 cell lines were used for antibody binding flow cytometry experiments. Cells (10^5 cells/sample) were stained with a 1:100 dilution of serum in PBS with 0.1% BSA and 0.05% sodium azide for 1 h at 4° C. Cells were washed and incubated with a 1:100 dilution of either anti-mouse IgG fluorescein isothiocyanate (FITC; Sigma) or anti-human IgG AlexaFluor 488 (Molecular Probes, Invitrogen) for 1 h at 4° C. Some samples were further stained using anti-FITC AlexaFluor 488. Cells were washed and fixed in PBS+1% paraformaldehyde. Cells were analyzed on a FACSCalibur (BD Biosciences) with FlowJo software (Tree Star). Controls included unstained cells and cells stained with secondary antibody alone.

Test [2] deals with MDA-MB-453 cells. Nature of the test: ADCC assay with human PBMC, MDA-MB-453 cells. The format is cell-based. The note with it: 1:25 serum or 20 μg/ml antibody, human PBMC 50:1, 4 h, compared to rituximab. The protocol:
All experimental sera were heat-inactivated (56° C., 30 min) prior to use. A431 or MDA-MB-453 cells were incubated with a 1:25 dilution of heat-inactivated sera or control antibody (20 μg/ml) 30 min at 37° C. in 96-well U bottom plates. Freshly isolated human peripheral blood mononuclear cells (PBMC) from healthy donors were incubated with antibody coated target cells at a 50:1 effector to target ratio for 4 h at 37° C. Fifty microliters of each cell culture supernatant was then assayed for lactate dehydrogenase released from dead cells using the CytoTox96 Non-Radioactive Cytotoxicity Assay (Promega) per manufacturer's instructions. Percent cytotoxicity was calculated as [(experimental-effector spontaneous-target spontaneous)/(target maximum-target spontaneous)]×100.

Test [3] has as its system MDA-MB-453 cells (HER2-positive, EGFR-negative). Nature of the test: Flow cytometry, binding to MDA-MB-453 cells. The note with it: serum 1:100 or antibody 5 μg/ml. More on the design: species or system human. Here is the method:
as §1

For the substance “cetuximab: anti-human EGFR monoclonal antibody [reference compound]”, the “MDA-MB-453 cell growth inhibition” value with MDA-MB-453 cells [1] is given as “failed to inhibit”. Besides, the “Staining of A431 cells by flow cytometry” value in the test on human EGFR on A431 cells was “stain”. In addition, the “ADCC killing of MDA-MB-453 cells” value with MDA-MB-453 cells [2] is “failed to induce MDA-MB-453 cell killing”. For the same substance, the “Binding to MDA-MB-453 cells by flow cytometry” value in test [3] is reported as “did not”.
Turning to “trastuzumab: anti-human HER2 monoclonal antibody [reference compound]”, the “Binding to MDA-MB-453 cells by flow cytometry” value in test [3] was “bound”.
